Values quoted from earlier work as cited in patent US8431715B2, “Thiazole compound (as PPARδ) ligand and pharmaceutical, cosmetic and health food comprised thereof” (Seoul National University Industry Foundation, priority 2007, dated 2013).

Protein sequences, listed by entry. Tags and fused reporters are not part of them. Lines headed by an entry give the natural chain unless they say otherwise; changes in a name come on top.
UniProt Q03181, whole entry: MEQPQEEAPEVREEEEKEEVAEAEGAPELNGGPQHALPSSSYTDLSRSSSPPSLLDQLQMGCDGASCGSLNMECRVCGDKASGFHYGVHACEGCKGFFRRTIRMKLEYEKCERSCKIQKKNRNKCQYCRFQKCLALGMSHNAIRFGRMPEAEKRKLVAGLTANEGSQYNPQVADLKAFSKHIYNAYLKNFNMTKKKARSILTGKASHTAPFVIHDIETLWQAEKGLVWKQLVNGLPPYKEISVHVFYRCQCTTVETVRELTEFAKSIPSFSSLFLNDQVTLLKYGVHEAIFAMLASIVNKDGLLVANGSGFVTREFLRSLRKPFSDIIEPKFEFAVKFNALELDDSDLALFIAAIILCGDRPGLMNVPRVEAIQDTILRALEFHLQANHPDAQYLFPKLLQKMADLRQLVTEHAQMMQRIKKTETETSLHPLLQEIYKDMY

Target: hPPARδ (Homo sapiens, UniProt Q03181)
Conditions: literature; cited from earlier work

In the case of CCCc1c(OCCCSc2ccc(CC(=O)O)cc2Cl)ccc2c(C(F)(F)F)noc12, the “selectivity to other hPPAR subtypes” value is listed as “barely have selectivity”.
